Measurements taken from patent publication US20180318378A1 (KOREA ATOMIC ENERGY RESEARCH INSTITUTE, published 2018).

Biological target: T1, AKT (serine/threonine protein kinase) (UniProt P31749 1-480, limits assumed)
T1 construct: AKT of the cells themselves in the co-immunoprecipitation; also called AKT1
T1 sequence (looked up): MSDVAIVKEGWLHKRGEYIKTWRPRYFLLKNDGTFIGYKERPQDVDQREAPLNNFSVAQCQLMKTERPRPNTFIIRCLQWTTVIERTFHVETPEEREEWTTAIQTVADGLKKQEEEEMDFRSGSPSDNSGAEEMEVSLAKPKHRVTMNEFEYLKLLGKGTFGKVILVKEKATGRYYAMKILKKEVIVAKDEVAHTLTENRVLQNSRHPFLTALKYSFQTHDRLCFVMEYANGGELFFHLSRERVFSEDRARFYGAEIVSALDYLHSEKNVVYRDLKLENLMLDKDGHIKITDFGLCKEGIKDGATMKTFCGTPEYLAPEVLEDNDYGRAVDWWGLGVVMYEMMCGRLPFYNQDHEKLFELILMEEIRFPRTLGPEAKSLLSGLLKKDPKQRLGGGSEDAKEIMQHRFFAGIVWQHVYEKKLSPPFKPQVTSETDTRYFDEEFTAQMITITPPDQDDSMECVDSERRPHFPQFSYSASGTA
Test: co-immunoprecipitation with TSPYL or AKT specific antibody, Western blotting
Procedure: To confirm the binding between TSPYL5 and AKT, the lung cancer cell line A549 or H460 was transfected with wild-type TSPYL5 or TSPYL5-120A, from which proteins were separated. TSPYL or AKT specific antibody was diluted at the ratio of 200:1, which was placed in a 4 rotator, followed by reaction for at least 12 hours. The prepared A+G agarose beads were added thereto, followed by further reaction for 5 hours. Centrifugation was performed at 2000 rpm, at 4° C., for 3 minutes. The supernatant was discarded and the remaining beads were washed with a protein extraction solution three times. The protein was heated at 95 and the protein binding was confirmed by Western blotting.

B1: TSPYL5-120A mutant (120th residue threonine substituted with alanine) (other, UniProt Q86VY4 1-417, looked up)
chain: MSGRSRGRKSSRAKNRGKGRAKARVRPAPDDAPRDPDPSQYQSLGEDTQAAQVQAGAGWGGLEAAASAQLLRLGEEAACRLPLDCGLALRARAAGDHGQAAARPGPGKAASLSERLAADAVFVGTAGTVGRPKNAPRVGNRRGPAGKKAPETCSTAGRGPQVIAGGRQKKGAAGENTSVSAGEEKKEERDAGSGPPATEGSMDTLENVQLKLENMNAQADRAYLRLSRKFGQLRLQHLERRNHLIQNIPGFWGQAFQNHPQLASFLNSQEKEVLSYLNSLEVEELGLARLGYKIKFYFDRNPYFQNKVLIKEYGCGPSGQVVSRSTPIQWLPGHDLQSLSQGNPENNRSFFGWFSNHSSIESDKIVEIINEELWPNPLQFYLLSEGARVEKGKEKEGRQGPGKQPMETTQPGVSQSN
notes: Expressed from the transfected vector in lung cancer cells; tested in cell lysate by co-immunoprecipitation; also called T120A-TSPYL5; TSPYL5-T120A
  binding result: no binding
